Source: ChEMBL document CHEMBL5543074, “Synthesis, antioxidant and neuroprotective analysis of diversely functionalized α-aryl-N-alkyl nitrones as potential agents for ischemic stroke therapy” (Eur J Med Chem, 2024)

Assay: Antioxidant activity assessed as interaction reducing activity with DPPH at 50 uM measured after 20 mins by absorbance based assay
Type: functional
Set-up: scale not given: the % may be the effect or the level left

Compound `CC(Cc1ccc(O)c(O)c1)C(C)Cc1ccc(O)c(O)c1` (stereo unspecified) [NORDIHYDROGUAIARETIC ACID] has an Activity of 81%.
